The values below come from patent US10829561B2, “Antibodies targeting quiescin sulfhydryl oxidase (QSOX1) and uses of same” (Yeda Research and Development Co. Ltd., priority 2015, dated 2020).

Assay [1] addresses T1, MmQSOX1 Trx module (Mus musculus, UniProt Q8BND5).
T1 construct: MmQSOX1Trx and MmQSOX1Erv span residues 36-275 and 289-550, respectively, of Mus musculus QSOX1; made in house; host or cells: E. coli BL21 (DE3)
T1 sequence (Q8BND5 36-275): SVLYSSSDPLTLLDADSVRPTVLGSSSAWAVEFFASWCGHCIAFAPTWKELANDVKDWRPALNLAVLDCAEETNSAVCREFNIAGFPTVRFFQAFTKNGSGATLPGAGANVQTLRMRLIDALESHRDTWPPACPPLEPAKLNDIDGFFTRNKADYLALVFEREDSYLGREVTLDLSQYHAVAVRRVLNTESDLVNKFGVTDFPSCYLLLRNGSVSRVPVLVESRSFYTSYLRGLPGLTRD
In words: Analytical size-exclusion chromatography of antibody-antigen complexes. In kind it is binding. Conditions: Superdex 200, PBS. How it is done:
(§1) MsQSOX1, its fragments, MAb316.1, or MAb947.3 were loaded onto a Superdex 200 column (GE HealthCare) equilibrated with phosphate buffered saline (PBS) at a flow rate of 0.8 mL/min. MsQSOX1-antibody complexes were injected after a 30 min co-incubation at 4° C. Elution of proteins was monitored by absorbance at 280 nm.
(§2) MAb492.1 and MAb492gen bind the N-terminal QSOX1 Trx domain. Since MAb316.1 was generated in mice injected with full-length MmQSOX1, inventors sought to localize its epitope. Size exclusion chromatography was used to compare the elution profiles of MmQSOX1, or each of its constituent modules, to their elution profiles when mixed with MAb316.1. […] In contrast, migration of the MmQSOX1 Erv module, responsible for the sulfihydryl oxidase activity, was not affected, pointing at the Trx module as the MAb316.1 binding region in MmQSOX1.
On the technique in general: In gel filtration, larger molecules generally elute earlier.

In assay [2] the target is T2, full-length MmQSOX1 (Mus musculus, UniProt Q8BND5).
T2 construct: Recombinant MmQSOX1 is truncated at the carboxy-terminus and so migrates faster than endogenous secreted MmQSOX1; made in house
T2 sequence (Q8BND5 36-550 limits assumed): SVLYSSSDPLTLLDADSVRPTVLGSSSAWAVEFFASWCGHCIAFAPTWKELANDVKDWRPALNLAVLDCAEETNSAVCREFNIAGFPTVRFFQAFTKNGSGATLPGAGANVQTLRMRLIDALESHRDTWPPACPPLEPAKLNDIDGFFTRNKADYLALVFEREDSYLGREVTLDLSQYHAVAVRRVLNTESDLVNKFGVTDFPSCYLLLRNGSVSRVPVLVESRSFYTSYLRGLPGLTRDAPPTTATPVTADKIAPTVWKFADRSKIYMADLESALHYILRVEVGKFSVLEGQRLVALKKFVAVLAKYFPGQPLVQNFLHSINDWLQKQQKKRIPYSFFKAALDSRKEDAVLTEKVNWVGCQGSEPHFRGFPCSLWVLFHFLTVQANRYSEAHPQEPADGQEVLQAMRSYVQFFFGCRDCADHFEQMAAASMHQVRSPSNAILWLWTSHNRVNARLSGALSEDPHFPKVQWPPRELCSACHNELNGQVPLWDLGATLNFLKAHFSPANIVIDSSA
The description is as above. It counts as binding. The settings on record: Superdex 200, PBS. As for the experimental part: as §1, §2

In assay [3] the target is T3, HsQSOX1 (Homo sapiens, UniProt O00391).
T3 construct: made in house
T3 sequence (O00391 33-546 limits assumed): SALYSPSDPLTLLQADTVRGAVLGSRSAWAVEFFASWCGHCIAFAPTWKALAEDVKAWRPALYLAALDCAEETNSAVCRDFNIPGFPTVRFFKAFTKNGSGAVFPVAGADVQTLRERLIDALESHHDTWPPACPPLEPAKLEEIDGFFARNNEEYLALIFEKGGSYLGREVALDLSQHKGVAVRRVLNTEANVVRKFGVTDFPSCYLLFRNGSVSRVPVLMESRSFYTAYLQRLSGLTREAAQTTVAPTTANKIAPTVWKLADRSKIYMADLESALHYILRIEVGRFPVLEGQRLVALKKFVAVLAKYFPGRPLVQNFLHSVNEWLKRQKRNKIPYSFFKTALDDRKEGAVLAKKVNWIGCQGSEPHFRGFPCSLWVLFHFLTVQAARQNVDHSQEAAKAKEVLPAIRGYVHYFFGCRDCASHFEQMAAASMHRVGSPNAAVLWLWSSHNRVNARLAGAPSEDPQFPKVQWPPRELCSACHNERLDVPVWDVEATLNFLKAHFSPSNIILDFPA
The settings on record: previously measured, Grossman I. et al. (2013); read-out: Inhibition constant (Ki), HsQSOX1, previously measured; cited from earlier work.

For assay [4], the target named is T4, MmQSOX1 (Mus musculus, UniProt Q8BND5).
T4 construct: Recombinant MmQSOX1 is truncated at the carboxy-terminus and so migrates faster than endogenous secreted MmQSOX1; made in house
T4 sequence (Q8BND5 36-550 limits assumed): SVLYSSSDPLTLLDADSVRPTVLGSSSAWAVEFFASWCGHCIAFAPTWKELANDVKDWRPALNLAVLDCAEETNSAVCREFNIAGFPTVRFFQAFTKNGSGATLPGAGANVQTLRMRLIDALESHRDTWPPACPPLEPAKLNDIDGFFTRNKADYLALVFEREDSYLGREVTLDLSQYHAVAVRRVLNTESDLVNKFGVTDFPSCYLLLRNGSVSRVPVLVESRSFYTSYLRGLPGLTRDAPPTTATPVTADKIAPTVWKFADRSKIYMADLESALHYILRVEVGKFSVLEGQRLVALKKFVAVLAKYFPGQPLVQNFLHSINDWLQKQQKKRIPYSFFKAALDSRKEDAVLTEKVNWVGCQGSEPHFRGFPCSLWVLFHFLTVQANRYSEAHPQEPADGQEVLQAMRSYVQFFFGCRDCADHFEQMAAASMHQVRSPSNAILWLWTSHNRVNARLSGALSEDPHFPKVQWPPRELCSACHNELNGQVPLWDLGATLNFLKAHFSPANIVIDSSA
Description: Colorimetric assay of RNase A oxidation. It counts as biochemical. Conditions: 150 or 25 nM MmQSOX1; free thiols, absorbance at 412 nm. How it is done: Colorimetric assays of RNase A oxidation were performed as described previously to obtain IC50 values [Grossman I. et al. (2013), supra]. Ki values were obtained in oxygen consumption assays as previously described [Grossman I. et al. (2013), supra].
MmQSOX1 inhibition by MAb492gen was next quantified and compared to inhibition by the natural antibody MAb316.1. In one assay, MmQSOX1 activity was measured by the number of free thiols remaining at the end of the oxidation reaction of denatured and reduced RNase A. Various MAb492gen concentrations were scanned against two MmQSOX1 concentrations. […] In a second assay MmQSOX1 catalytic activity on DTT was measured using the oxygen consumption assay, providing data that were fitted to a model of tight-binding inhibition [Bieth, J. G. (1995) Methods Enzymol.

“Also recorded” adds a separate entry of the source.

B1: MAb316.1: murine IgG1 monoclonal antibody targeting MmQSOX1, variable regions SEQ ID NOs: 9 and 10, CDRs SEQ ID NOs: 26-31 (antibody, V domains shown)
VL: QIVLTQSPAIMSASPGEKVTISCSASSSVSYMYWYHQKPGSSPKPWIYRTSNLASGVPARFSGSGSGTSYSLTISSMEAEDAATYYCQQYHSYPLTFGAGTKLELK
VH: QVQLQQSGPELVKPGASVKISCKASGYSFTSYYIHWVKQRPGQGLEWIGWIYPGSYNTEYSEKFKGKATLTADTSSSTAYMQLSSLTSEDSAVYYCARSEDWFAYWGQGTLVTVS
modifications: MAb316.1 variable region - light chain; MAb316.1 variable region - heavy chain
As for B1, the “Elution shift / binding of MmQSOX1 Trx module” value in assay [1] is reported as “shifted the elution; also recorded: binds the Trx module”. Besides, the “Elution shift of full-length MmQSOX1 when mixed with antibody” value in assay [2] was “shifted the elution”.

B2: MAb492.1: previously published inhibitory monoclonal antibody blocking the Trx CXXC redox-active site of human QSOX1 (antibody, V domains shown)
VL: DVVMTQTHKFMSTSVGDRVSITCKASQDVSTAVAWYQQKSGQSPKLLIHSASYRYTGVPDRFTGSGSGTDFTFTISSVQAEDLAVYYCQQHYSIPLTFGAGTKLELK
VH: QVQLKQSGPGLVAPSQSLSITCTVSGFSLTGYGVNWVRQSPGKGLEWLGMIWGDGRTDYKSALKSRLSITKDNSKSQVFLKMNSLQTDDTARYFCASDYYGSGSFAYWGQGTLVTVSA
Turning to B2, in assay [3], the Ki – broadly, a dissociation constant, usually derived from enzyme kinetics or from competition with a known ligand – is 0.9 ± 0.1 nM.

B3: MAb492gen: recombinant full-length antibody based on scFv492gen, CDRs SEQ ID NOs: 46-51, cross-reactive to human and mouse QSOX1 (antibody, V domains shown)
VL: DVVMTQTHKFMSTSVGDRVSITCKASQDVSGAVAWYQQKSGQSPKLLISMASQRYTGVPDRFTGSGSGTDFTFTISSVQAEDLAVYYCQQHYAIPLTFGAGTKLELK
VH: QVQLKQSGPGLVAPSQSLSITCTVSGFSLTGYSVIWVRQSPGKGLEWLGMIWGDGRTEYKSALKSRLSITKDNSKSQVFLKMNSLQTDDTARYFCASDSMDPGSFAYWGQGTLVTVSA
B3: the “IC50, RNase A oxidation” value in assay [4] is listed as “close to the MmQSOX1 concentration”.
